Screening data (PubChem BioAssay)
GIV-Gai inh = inhibitors of GIV GBA-motif binding to rat Galpha-i3. 210,000 tested, 0.42% active. percent of control (FP), % (concentration not given with the values). AID 1224905. Galpha-i3/FITC-GIV peptide fluorescence polarization, 90 min; active compounds read low; scaled: aluminum fluoride 0%, vehicle 100%;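 active = replicate mean at 85% of control or lower, very high polarization wells dropped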;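 note: wells of about 15 µL received 100 nL stock; the first replicate is given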
HCMV UL50-53 inh = disrupts HCMV UL50-UL53 complex binding. 0.15% of 190,000 active. HTRF UL50-UL53 interaction, normalized percent inhibition. inhibition, % (no concentration beside the values); in the data active = inhibition above about 27%, passing the limit was not always enough
GIV Gai FP conf = confirmation of inhibitors of GIV binding to rat Galpha-i3; 38% of 580 active; shares compounds with GIV-Gai inh; FITC-GIV peptide binding to Galphai3, fluorescence polarization; hits give low values; fluorescence polarization, mP at 100 µM;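 active = inhibition score of 15 or more, meaning 100 minus mean polarization as percent of control over three replicates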;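 also: lower mP means peptide displaced from Galphai3 so more inhibition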
GIV-Gai AS conf = GIV-Galpha-i3 inhibition, AlphaScreen confirmation; shares compounds with GIV-Gai inh; AlphaScreen Galphai3-GIV binding, purified proteins, 90 min; hits give low values; AlphaScreen counts at 100 µM; 39% of 580 active; AID 1259351;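 active = inhibition score at or above a set limit, where the score is 100 minus the three-replicate mean percent of control signal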
An asterisk follows results filed as active; / = no result. Rows were chosen to be rich in hits. Some 0.43% of all compounds tested hit in one or more screens of this group.

SMILES | GIV-Gai inh | HCMV UL50-53 inh | others
CCOC(=O)C1C2NC(=S)NC1(C)Oc1ccccc12 (configuration not stated) | 100 | -33
CCOC(=O)c1cc(CC)sc1/N=C/C1C(=O)NC(=S)NC1=O | -36* | /
O=c1c2ccccc2nc(SC(F)F)n1-c1ccccc1 | / | 0
CCN(CC)c1ccc(C=C(C#N)C#N)cc1 | 51* | -56
N#CC(C#N)=Cc1ccc(O)cc1 | / | -13
CC1=C(C(=O)OC(C)C)C2(C(=O)Nc3ccccc32)C(C#N)=C(N)O1 (configuration not stated) | 98 | -20
Cc1[nH]nc2ccc(-c3cncc(OCC(N)Cc4c[nH]c5ccccc45)c3)cc12 (configuration not stated) | / | 0
Cn1c(=O)[nH]c2nncnc2c1=O | 107 | 78*
O=P(NC1CCCCC1)(NC1CCCCC1)Oc1ccccc1 | / | 1
CC1(c2ccc3c(c2)OCCO3)NC(=O)N(CN2CC=C(c3ccccc3)CC2)C1=O (configuration not stated) | / | -21
CCc1nn(C(C)C(=O)N2CCC3(CC2)OCCO3)c(=O)c2cc3occc3n12 (configuration not stated) | 99 | -7
N#Cc1c(N)[n+]([O-])c2ccccc2[n+]1[O-] | -31* | -132
C1=C(c2cccnc2)Nc2ncnn2C1c1cccs1 (configuration not stated) | -74* | -73
COC(=O)c1c(C)n(Cc2ccc(C(C)(C)C)cc2)c2c1cc(O)c1ccccc12 | 104 | /
Cc1ccc(C2C(C#N)=C(N)Oc3c2c(=O)oc2ccccc32)o1 (configuration not stated) | / | 5
CC(=O)N1c2ccc(C)cc2C2CN(C)CCC21 (configuration not stated) | 107 | /
Cc1ccc2c(c1)C1CN(C)CCC1N2 (configuration not stated) | 84* | 13
CCC(=O)OC1N=C(c2ccccc2Cl)c2cc(Br)ccc2NC1=O (configuration not stated) | 113 | /
C=C(C)[C@@H]1CCC(C)=C[C@H]1c1c(O)cc(O)cc1CCCCC | / | 6
Cn1c(CCCC(=O)O)nc2cc(N(CCCl)CCCl)ccc21 | 97 | 67*

Reprinted from the part before: two compounds, then new ones.
SMILES | GIV-Gai inh | HCMV UL50-53 inh | others
C=C(C)[C@@H]1CCC(C)=C[C@H]1c1c(O)cc(O)cc1CCCCC | / | 6
Cn1c(CCCC(=O)O)nc2cc(N(CCCl)CCCl)ccc21 | 97 | 67*
CN1C(=O)C(=Cc2ccccc2OS(=O)(=O)c2ccccc2)C(=O)N(C)C1=O | 106 | -6
COc1cc(C=C2C(=O)N(C)C(=O)N(C)C2=O)ccc1OS(=O)(=O)c1ccccc1 | 104 | 62*
CCCCn1c(C)c(C(=O)OCC)c2cc(OC(=O)COc3ccccc3C)c3ccccc3c21 | 106 | -2
O=C1NC(=O)C(=Cc2cn(Cc3ccccc3)c3ccccc23)C(=O)N1 | -5.9* | /
O=Cc1cn(Cc2ccc(Cl)cc2)c2ccccc12 | / | -8
COC(=O)C1=C(N)OC(C)=C(C(=O)OCc2ccccc2)C12C(=O)Nc1ccccc12 (configuration not stated) | 103 | -19
CS(=O)(=O)OC1CSC[C@H]1NC(=O)c1ccccc1 (some centres not stated) | 103 | /
O=C1NC(=O)C(=Cc2ccccc2OCCOc2ccc([N+](=O)[O-])cc2)C(=O)N1 | 104 | -2
CC(C)(C)c1ccc(OCCOc2ccccc2C=C2C(=O)NC(=O)NC2=O)cc1 | 91 | 65*
CC(C)(c1ccc(O)c(Cl)c1)c1ccc(O)c(Cl)c1 | / | -6
C=CCN1C(=O)/C(=C/c2ccco2)C(=O)NC1=S | 46* | -2 | GIV Gai FP conf=52*;GIV-Gai AS conf=936*
COc1ccccc1N1C(=O)NC(=O)/C(=C\C=C\c2ccco2)C1=O | 104 | /
C=CCN1C(=O)NC(=O)/C(=C/c2ccco2)C1=O | 119 | /
O=C1NC(=O)N(Cc2ccco2)C(=O)/C1=C\c1ccco1 | 61* | 14 | GIV Gai FP conf=46*;GIV-Gai AS conf=1412*
CCOC(=O)C1CCN(Cc2ccccc2)CC1 | 99 | -7
COc1ccc(CNC(=O)C(C)NC(C)=O)cc1 (configuration not stated) | / | 0
CN(C)Cc1c(O)[nH]c(=S)[nH]c1=O | 98 | -8
O=C1NC(=O)C(=Cc2ccc(-c3cc(C(=O)O)ccc3Cl)o2)C(=O)N1 | 59* | -19 | GIV Gai FP conf=60*;GIV-Gai AS conf=4991*
COc1ccc(N2C(=O)/C(=C/c3ccc(-c4cc(C(=O)O)ccc4Cl)o3)C(=O)NC2=S)cc1 | 108 | -1
CN(N=O)c1ccc(O)c(O)c1 | 37* | 102* | GIV Gai FP conf=42*;GIV-Gai AS conf=3178*
NC(Cc1cc(O)c(O)cc1O)C(=O)O (configuration not stated) | 71* | 76* | GIV Gai FP conf=34*;GIV-Gai AS conf=2389*
NCCc1cc(O)c(O)cc1O | / | -22
C[C@]12CCC(O)CC1=CCC1C2CC[C@@]2(C)C1CC[C@]2(C)O (some centres not stated) | / | -79
CCn1cc(C=C2C(=O)NC(=O)NC2=O)c2ccccc21 | 94 | -68 | GIV Gai FP conf=19*;GIV-Gai AS conf=15779*
CCn1cc(C(=O)c2ccccc2)c2ccccc21 | 100 | 5
COCCNC(=O)c1c(N)n(Cc2ccccc2)c2nc3ccccc3nc12 | / | -25
CN1C(=O)/C(=C/c2ccc(I)o2)C(=O)NC1=S | 46* | -42 | GIV Gai FP conf=56*;GIV-Gai AS conf=812*
O=C1NC(=S)N(c2ccc(Br)cc2)C(=O)/C1=C\c1ccc(-c2ccccc2C(=O)O)o1 | 112 | -2
CCCNC(=O)N1CCC2(C1)C(=O)Nc1ccc(OC)cc12 (configuration not stated) | 98 | /
COc1ccccc1N1CCN(CC#N)CC1 | 101 | -7
O=C1C=CC[C@@H]2[C@@H]3CCCN4CCC[C@@H](CN12)[C@@H]34 | / | 7
C=CCNc1nc(Cl)nc(N2CC3CC(C2)c2cccc(=O)n2C3)n1 (configuration not stated) | 100 | 7
CCOc1cc(C=C2C(=O)NC(=O)NC2=O)cc(Cl)c1O | 72* | 11 | GIV Gai FP conf=62;GIV-Gai AS conf=5092*
COc1cc(C=C2C(=O)NC(=O)NC2=O)cc(Cl)c1OCCOc1ccccc1 | 104 | 13
COc1cc(C(c2c(C)[nH]n(-c3ccccc3)c2=O)c2c(C)[nH]n(-c3ccccc3)c2=O)cc(OC)c1OC | 79* | / | GIV Gai FP conf=53*;GIV-Gai AS conf=19198*
COc1cc(CN2CCN(C(=O)Cc3ccccc3)CC2)cc(OC)c1OC | 98 | -8
Cc1cccc(C)c1-n1nnnc1C1(N2CCCC2C(=O)O)CCCCC1 (configuration not stated) | 106 | /
C=CCOC(=O)C1=C(N)OC(C)=C(C(=O)OCCOC)C12C(=O)Nc1ccccc12 (configuration not stated) | 109 | /
CC[C@@]1(O)C(=O)OCc2c1cc1n(c2=O)Cc2cc3c(O)cccc3nc2-1 | 77* | -78 | GIV Gai FP conf=61*;GIV-Gai AS conf=15350
CC[C@@]1(O)C(=O)OCc2c1cc1n(c2=O)Cc2cc3ccccc3nc2-1 | 98 | -83

4 entries drawn at random from the list so far:
SMILES | GIV-Gai inh | HCMV UL50-53 inh | others
C[C@]12CCC(O)CC1=CCC1C2CC[C@@]2(C)C1CC[C@]2(C)O (some centres not stated) | / | -79
CC[C@@]1(O)C(=O)OCc2c1cc1n(c2=O)Cc2cc3c(O)cccc3nc2-1 | 77* | -78 | GIV Gai FP conf=61*;GIV-Gai AS conf=15350
CCn1cc(C=C2C(=O)NC(=O)NC2=O)c2ccccc21 | 94 | -68 | GIV Gai FP conf=19*;GIV-Gai AS conf=15779*
CN1C(=O)/C(=C/c2ccc(I)o2)C(=O)NC1=S | 46* | -42 | GIV Gai FP conf=56*;GIV-Gai AS conf=812*
